This data set is described as follows: Solubility remark in the D'Amour-Smith s.c. test. To be noted: Table 2; s.c. column.

Consider two compounds from US4162316A (priority 1975, dated 1979).

`COc1ccccc1N1CCN(C(Cc2cccc(Cl)c2)c2ccccc2)CC1` (racemic): the “Insoluble (solubility for s.c. administration)” value is on record as “Insoluble”.
As for `Oc1cccc(CC(c2ccccc2)N2CCN(c3cccc(O)c3)CC2)c1` (racemic), the entry is “Insoluble”.
